Measurements reported in PubChem BioAssay AID912 (National Center for Advancing Translational Sciences (NCATS), 2007).
The campaign covered roughly 70,000 compounds. About 470 (0.67%) were called active. Listed are the inconclusive results; actives and inactives stand elsewhere. The call rests on the fitted dose curve.

Assay: qHTS Assay for Anthrax Lethal Toxin Internalization; further: nearly all actives have a fitted effect of over 50% in size
Conditions: Cells, FRET ratio (460/530); activity change, negative = inhibition: at 40 µM (top of the series) unless noted
On the % scale 0 is the no-effect control and ±100 the full control effect; potency means the concentration at half of the fitted maximal effect.

SMILES | Potency | activity change, negative = inhibition
O=P(Nc1nccs1)(c1ccccc1)c1nc2ccccc2s1 (centres undefined) | inconclusive: 126 nM | –
O=[As]c1ccc(S(=O)(=O)NCCO)cc1 (centres undefined) | inconclusive: 1580 nM | –
[N-]=[N+]=NCC(N)=O | inconclusive: 501 nM | –
CN(N=O)C(=N)N[N+](=O)[O-] | – | inconclusive: 64.4%
CCc1nc2c(n1)c1c(non1O)c1c2no[n+]1[O-] | inconclusive: 10000 nM | –
O=C(CO)Nc1ccc([As](=O)(O)O)cc1 | – | inconclusive: -22.6% [at 8 µM]
CN(C(=O)Cc1ccc(Cl)c(Cl)c1)[C@H]1CCCC[C@@H]1N1CCCC1 | – | inconclusive: -29.8%
Cc1c2non([O-])c-2c(C)[n+](=O)[n+]1[O-] | – | inconclusive: -88.7%
CN1CCC[C@H](OC(=O)C(c2ccccc2)c2ccccc2)C1 | – | inconclusive: 3.71% [at 8 µM]
